Values quoted from earlier work in paper PMC7399559.

Target: trypsin (Bos taurus) (UniProt P00760)

BPTI (from UniProt P00974)
Kd: 0.05 pM and 0.06 pM

Where “and” joins values, the source holds several entries; their conditions need not be identical. Identical values can stand only once.
